The values that follow are results of earlier work, collected in patent publication US6340709B1.

The chains behind the UniProt entries cited, without tags or fusion partners. Residues count along the entry.
UniProt P03956, 100-469 limits assumed: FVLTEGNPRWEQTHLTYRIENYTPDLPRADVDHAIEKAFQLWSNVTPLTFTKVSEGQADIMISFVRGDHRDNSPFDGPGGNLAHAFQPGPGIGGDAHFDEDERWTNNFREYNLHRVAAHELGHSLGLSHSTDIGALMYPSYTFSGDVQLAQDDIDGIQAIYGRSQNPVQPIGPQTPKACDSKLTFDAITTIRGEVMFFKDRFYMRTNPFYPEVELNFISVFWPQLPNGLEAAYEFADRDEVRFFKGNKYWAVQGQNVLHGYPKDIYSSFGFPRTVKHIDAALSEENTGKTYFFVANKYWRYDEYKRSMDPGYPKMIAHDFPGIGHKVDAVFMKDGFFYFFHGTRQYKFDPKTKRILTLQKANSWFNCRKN

pIC50: −log10 of the molar value.

This data set addresses MMP-1 (Homo sapiens, UniProt P03956). To be noted: read-out: MMP-1 IC50; IA = inactive; cited from earlier work.

As usually defined, the pIC50 is the negative decadic logarithm of the IC50, by convention in mol/L. As to `CC(C)C[C@H](NC(=O)[C@H](CCc1ccccc1)CP(=O)(O)CCCCN1C(=O)c2ccccc2C1=O)C(=O)Nc1ccccc1`, the pIC50 was < 5.00.
